Assay results reported in patent publication US20240409609A1.

Sequences of proteins named here, by UniProt entry; tags and fusion partners are left off. A change or cut given only in a name is not applied to a line headed by its entry. A line that says so, or that is headed by a name, gives the form on record, which may keep a tag or linker. Residues count along the entry.
UniProt P00533, 25-1210 limits assumed: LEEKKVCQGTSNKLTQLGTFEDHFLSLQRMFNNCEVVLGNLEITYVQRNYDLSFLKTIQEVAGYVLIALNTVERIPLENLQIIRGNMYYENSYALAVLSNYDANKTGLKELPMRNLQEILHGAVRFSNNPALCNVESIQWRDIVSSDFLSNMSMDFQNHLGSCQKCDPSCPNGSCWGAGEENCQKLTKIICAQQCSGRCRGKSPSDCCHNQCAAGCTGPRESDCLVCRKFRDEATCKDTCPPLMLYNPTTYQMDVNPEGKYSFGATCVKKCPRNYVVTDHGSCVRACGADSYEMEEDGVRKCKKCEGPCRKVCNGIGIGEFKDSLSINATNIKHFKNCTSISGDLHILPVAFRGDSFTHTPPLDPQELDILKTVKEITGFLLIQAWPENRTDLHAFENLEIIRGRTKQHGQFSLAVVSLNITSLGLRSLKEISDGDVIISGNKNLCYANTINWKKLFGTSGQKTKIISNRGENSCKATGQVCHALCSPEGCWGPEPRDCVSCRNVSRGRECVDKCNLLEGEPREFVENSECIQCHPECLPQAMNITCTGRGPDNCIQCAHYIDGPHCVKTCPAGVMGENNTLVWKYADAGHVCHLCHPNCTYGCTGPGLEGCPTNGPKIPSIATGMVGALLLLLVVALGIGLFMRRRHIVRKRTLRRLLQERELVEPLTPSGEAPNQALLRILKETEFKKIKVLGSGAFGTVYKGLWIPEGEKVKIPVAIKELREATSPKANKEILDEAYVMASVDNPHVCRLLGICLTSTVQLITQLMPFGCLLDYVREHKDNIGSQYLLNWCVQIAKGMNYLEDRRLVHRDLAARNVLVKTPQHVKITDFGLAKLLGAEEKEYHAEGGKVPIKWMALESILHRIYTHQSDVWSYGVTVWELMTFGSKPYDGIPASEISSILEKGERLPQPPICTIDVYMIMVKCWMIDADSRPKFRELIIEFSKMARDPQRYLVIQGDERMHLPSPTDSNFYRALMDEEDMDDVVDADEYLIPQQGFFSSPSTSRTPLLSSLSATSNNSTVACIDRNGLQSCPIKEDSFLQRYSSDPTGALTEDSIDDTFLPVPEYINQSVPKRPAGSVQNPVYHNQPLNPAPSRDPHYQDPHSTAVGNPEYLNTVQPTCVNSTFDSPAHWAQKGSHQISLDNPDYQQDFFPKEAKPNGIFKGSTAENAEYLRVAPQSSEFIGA
UniProt P00533, 668-1210 limits assumed: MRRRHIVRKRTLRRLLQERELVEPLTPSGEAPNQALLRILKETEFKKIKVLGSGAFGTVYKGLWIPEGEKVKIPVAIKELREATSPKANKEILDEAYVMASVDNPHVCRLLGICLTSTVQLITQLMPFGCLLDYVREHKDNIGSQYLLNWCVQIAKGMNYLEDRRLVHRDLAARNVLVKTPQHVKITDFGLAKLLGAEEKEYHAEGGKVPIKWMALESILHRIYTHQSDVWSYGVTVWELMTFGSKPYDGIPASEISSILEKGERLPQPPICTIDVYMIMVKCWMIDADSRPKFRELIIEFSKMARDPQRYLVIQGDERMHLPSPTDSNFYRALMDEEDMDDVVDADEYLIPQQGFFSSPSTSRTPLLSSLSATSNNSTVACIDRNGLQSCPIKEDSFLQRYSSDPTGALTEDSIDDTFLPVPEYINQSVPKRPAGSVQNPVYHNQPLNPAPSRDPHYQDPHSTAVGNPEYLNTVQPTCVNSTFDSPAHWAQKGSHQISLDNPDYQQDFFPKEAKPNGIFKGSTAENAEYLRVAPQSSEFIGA
UniProt P00533, 25-1210 T790M/C797S/L858R limits assumed: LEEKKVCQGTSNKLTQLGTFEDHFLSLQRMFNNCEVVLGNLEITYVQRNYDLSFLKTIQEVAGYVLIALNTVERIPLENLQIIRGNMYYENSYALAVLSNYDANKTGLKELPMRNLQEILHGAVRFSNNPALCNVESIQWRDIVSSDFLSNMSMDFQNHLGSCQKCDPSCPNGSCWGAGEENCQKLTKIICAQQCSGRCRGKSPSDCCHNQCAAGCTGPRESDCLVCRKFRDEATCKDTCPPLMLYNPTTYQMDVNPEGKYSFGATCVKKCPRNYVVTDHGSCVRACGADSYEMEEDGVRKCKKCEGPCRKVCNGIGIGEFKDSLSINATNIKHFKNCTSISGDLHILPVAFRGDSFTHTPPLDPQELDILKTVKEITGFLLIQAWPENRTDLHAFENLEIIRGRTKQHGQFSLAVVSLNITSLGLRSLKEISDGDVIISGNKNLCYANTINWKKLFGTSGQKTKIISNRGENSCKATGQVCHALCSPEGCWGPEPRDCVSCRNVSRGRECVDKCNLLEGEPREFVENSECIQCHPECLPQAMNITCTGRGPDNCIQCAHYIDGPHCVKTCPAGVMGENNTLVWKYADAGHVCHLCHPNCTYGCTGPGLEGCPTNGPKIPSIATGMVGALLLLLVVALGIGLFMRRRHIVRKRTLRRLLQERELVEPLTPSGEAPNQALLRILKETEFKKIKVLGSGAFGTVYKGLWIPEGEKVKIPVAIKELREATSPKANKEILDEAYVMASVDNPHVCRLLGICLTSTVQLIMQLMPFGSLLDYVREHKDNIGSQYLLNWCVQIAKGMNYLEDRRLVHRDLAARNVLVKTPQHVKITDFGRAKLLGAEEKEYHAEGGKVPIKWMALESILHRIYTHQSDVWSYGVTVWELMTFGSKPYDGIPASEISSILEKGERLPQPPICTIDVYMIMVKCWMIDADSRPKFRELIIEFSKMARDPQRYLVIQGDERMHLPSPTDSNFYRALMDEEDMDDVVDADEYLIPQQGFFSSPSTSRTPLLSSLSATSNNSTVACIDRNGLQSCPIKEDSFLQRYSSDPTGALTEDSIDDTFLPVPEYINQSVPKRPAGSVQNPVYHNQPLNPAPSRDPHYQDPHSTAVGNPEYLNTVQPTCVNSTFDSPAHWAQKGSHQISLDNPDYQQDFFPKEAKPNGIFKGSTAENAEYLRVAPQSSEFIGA
UniProt P00533, with tags, fused parts or gaps limits assumed, stated change not applied: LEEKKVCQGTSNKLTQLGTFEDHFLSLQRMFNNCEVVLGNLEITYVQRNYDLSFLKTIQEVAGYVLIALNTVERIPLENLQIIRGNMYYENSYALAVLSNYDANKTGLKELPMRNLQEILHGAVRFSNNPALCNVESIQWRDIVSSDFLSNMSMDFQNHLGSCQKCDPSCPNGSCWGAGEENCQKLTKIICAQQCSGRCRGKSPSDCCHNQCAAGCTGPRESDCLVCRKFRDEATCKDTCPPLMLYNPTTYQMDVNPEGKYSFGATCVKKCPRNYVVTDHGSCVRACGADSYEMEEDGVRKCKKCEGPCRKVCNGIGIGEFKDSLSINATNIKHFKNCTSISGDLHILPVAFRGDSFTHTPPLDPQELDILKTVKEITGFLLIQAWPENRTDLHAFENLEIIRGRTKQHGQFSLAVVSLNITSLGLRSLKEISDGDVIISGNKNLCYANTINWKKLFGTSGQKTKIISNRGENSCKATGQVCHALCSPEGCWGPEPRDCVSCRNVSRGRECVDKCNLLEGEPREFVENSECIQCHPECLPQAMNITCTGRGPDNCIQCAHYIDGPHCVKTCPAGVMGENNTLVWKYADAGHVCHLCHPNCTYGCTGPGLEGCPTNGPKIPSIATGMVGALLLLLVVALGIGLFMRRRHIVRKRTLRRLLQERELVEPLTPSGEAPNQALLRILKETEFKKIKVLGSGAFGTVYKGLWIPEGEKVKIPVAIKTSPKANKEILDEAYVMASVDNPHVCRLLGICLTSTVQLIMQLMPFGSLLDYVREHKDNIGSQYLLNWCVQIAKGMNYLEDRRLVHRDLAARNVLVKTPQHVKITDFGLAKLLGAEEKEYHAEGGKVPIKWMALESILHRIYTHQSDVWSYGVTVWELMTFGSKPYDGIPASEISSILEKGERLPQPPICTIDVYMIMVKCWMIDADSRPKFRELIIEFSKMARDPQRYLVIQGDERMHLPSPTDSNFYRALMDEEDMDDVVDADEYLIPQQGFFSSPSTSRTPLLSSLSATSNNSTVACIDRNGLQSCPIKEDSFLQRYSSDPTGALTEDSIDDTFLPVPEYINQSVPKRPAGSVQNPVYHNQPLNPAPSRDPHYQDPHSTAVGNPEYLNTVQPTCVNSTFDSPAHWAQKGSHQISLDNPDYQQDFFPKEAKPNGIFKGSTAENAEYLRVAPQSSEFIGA

What was measured:
EGFR WT = EGFR WT (Homo sapiens (Human), UniProt P00533); experiment: EGFR biochemical assay (AssayQuant chelation-enhanced fluorescence); details: read-out: AssayQuant EGFR WT IC50; 30 min preincubation, reaction time 360 min
[1] = biological target: EGFR T790M C797S L858R in Ba/F3 cells (Homo sapiens (Human), UniProt P00533, C797S/L858R/T790M); experiment: Ba/F3 pEGFR assay (AlphaLISA p-EGFR Tyr1068); type: cell-based; details: read-out: pEGFR Ba/F3 L858R/T790M/C797S IC50; 2 hrs treatment
EGFR WT in Ba/F3 cells = EGFR WT in Ba/F3 cells (Homo sapiens (Human), UniProt P00533); experiment: Ba/F3 pEGFR assay (AlphaLISA p-EGFR Tyr1068); type: cell-based; details: read-out: pEGFR Ba/F3 WT IC50; 2 hrs treatment, media supplemented with EGF
[2] = biological target: EGFR del746-750 T790M C797S in Ba/F3 cells (Homo sapiens (Human), UniProt P00533, C797S/DEL746-750/T790M); experiment: Ba/F3 pEGFR assay (AlphaLISA p-EGFR Tyr1068); type: cell-based; details: read-out: pEGFR Ba/F3 del19/T790M/C797S IC50; 2 hrs treatment

- IC50 (EGFR WT): 104 nM
- IC50 [1]: 771 nM
- IC50 (EGFR WT in Ba/F3 cells): 4610 nM
- IC50 [2]: 1790 nM
SMILES: C=CC(=O)Nc1cc(Oc2cccc(O)c2C=O)cc(C(=O)N=c2[nH]c3ccc(CN4CCN(C)CC4)cc3n2CC(C)(C)O)c1
